# Laboratory results reported in patent US8957024B2, “Composition and methods for reducing opioid-induced pruritus” (priority 2011, dated 2015).
# Entries after “also recorded” stand apart in the source; their conditions may differ.
# Tested on: HEK 293 cells co-expressing MOR1 and GRPR
# Assay: Calcium imaging, cells co-expressing MOR1 and GRPR
# Type: cell-based, mouse
smiles,measurement,value
CN1CC[C@]23c4c5ccc(O)c4O[C@H]2[C@@H](O)C=C[C@H]3[C@H]1C5 [morphine],calcium response to agonist,failed to evoke Ca2+ spikes; also recorded: unable to respond to morphine
